Test results taken from PMC9675978 (The Journal of steroid biochemistry and molecular biology, 2022).
Changes are numbered by the printed parent chain.

Legend:
Settings in all cases: 3.14 mM S-tetralol, 2.28 mM NAD+, pH 7.0, 37 °C
[1] = target: T1, AKR1C3 WT (Homo sapiens, UniProt P42330)
T1 sequence (P42330 1-323): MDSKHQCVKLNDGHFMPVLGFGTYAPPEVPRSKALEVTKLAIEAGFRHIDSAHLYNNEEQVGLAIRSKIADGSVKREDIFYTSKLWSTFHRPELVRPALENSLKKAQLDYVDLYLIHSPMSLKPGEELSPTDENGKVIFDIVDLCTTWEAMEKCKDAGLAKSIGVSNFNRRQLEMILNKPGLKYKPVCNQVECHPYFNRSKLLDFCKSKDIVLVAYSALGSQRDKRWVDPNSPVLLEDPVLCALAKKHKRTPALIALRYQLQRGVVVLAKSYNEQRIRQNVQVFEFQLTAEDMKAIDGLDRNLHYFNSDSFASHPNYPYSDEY

[2] = target: T2, AKR1C3 H5Q (Homo sapiens, UniProt P42330, H5Q)
T2 sequence (P42330 1-323 H5Q): T1 sequence (P42330 1-323) with H5Q

[3] = target: T3, AKR1C3 E77G (Homo sapiens, UniProt P42330, E77G)
T3 sequence (P42330 1-323 E77G): T1 sequence (P42330 1-323) with E77G

[4] = target: T4, AKR1C3 K104D (Homo sapiens, UniProt P42330, K104D)
T4 sequence (P42330 1-323 K104D): T1 sequence (P42330 1-323) with K104D

S-tetralol specific activity [1]: 3.8 ± 0.35 µmol/min/mg | S-tetralol specific activity [2]: 3.7 ± 0.31 µmol/min/mg | S-tetralol specific activity [3]: 3.1 ± 0.24 µmol/min/mg | S-tetralol specific activity [4]: 2.4 ± 0.22 µmol/min/mg
Compound: O[C@H]1CCCc2ccccc21 [S-tetralol, (S)-(+)– 1,2,3,4-Tetrahydro-1-naphthol]
